The chains behind the UniProt entries cited, without tags or fusion partners.
UniProt P49355, whole entry: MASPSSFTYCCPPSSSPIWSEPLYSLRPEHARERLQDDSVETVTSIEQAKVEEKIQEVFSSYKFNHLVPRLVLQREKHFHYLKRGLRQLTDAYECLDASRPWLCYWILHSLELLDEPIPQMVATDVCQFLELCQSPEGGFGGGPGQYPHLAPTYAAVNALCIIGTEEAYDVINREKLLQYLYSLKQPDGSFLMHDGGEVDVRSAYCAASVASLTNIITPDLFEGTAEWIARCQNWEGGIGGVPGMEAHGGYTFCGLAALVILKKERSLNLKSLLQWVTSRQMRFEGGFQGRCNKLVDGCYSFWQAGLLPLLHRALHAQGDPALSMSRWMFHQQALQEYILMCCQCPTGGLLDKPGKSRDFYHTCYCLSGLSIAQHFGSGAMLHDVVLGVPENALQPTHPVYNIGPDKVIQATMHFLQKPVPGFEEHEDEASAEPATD

In EP0461869A2, “Chemotherapeutic agents” (MERCK & CO. INC., priority 1990, dated 1991):

Molecular target: Farnesyl-protein transferase from bovine brain (partially purified enzyme preparation) (Bos taurus, UniProt P29702+P49355)
Experiment: Competition of Ras farnesylation by polyisoprenoids and peptides (Hepes-buffered assay, immunoprecipitation and nitrocellulose filtration)
Format: biochemical
Details: [Leu68]RAS1(term.)CVLS at 1 µM, 0.5 µM [3H]FPP, 10 min at 24° C; average of 2-5 determinations; >> = no competition at the highest concentration tested

## CC(C)C[C@H](NC(=O)[C@@H](NC(=O)[C@@H](N)CO)C(C)C)C(=O)N[C@@H](CO)C(=O)O
  IC50: > 100 µM
